US7265147B2, “3,6-disubstituted azabicyclo [3.1.0]hexane derivatives useful as muscarinic receptor antagonists” (Ranbaxy Laboratories Limited, priority 2002, dated 2007)

Chains of the proteins cited; added tags and fusions are not shown.
UniProt P08483, whole entry: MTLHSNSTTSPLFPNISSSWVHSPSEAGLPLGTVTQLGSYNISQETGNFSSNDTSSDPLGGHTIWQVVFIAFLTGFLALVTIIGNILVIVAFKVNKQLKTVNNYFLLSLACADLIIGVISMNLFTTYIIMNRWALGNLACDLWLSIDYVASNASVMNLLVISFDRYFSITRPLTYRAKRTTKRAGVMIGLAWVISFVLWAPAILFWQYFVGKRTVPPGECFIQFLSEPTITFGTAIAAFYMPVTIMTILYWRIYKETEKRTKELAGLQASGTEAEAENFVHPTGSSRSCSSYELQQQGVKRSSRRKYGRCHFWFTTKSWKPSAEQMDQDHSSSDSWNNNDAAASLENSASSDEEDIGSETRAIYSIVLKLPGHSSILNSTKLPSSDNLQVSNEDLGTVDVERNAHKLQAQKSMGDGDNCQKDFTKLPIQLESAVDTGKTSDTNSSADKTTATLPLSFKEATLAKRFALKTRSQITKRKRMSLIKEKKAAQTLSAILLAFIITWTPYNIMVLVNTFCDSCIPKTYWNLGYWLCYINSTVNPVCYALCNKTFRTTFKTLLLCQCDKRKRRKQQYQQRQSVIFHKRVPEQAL

What follows are molecules tested against M3 muscarinic receptor (Rattus norvegicus, UniProt P08483) (assay: biochemical).

SMILES	Ki [nM]
O=C(NCC#CCN1C[C@H]2C[C@H]2C1)C(O)(c1ccccc1)C1CCCCC1 (stereo partly drawn) [Compound No. 9, N-{4-[(1R, 5S)-3-azabicyclo[3.1.0]-hex-3-yl]but-2-ynyl}-2-hydroxy-2-cyclohexyl-2-phenylacetamide]	2610
O=C(NCC#CCN1C[C@H]2C[C@H]2C1)C(O)(c1ccccc1)c1ccccc1 [Compound No. 11, N-{4-[(1R, 5S)-3-azabicyclo[3.1.0]-hex-3-yl]but-2-ynyl}-2-hydroxy-2,2-diphenylacetamide]	291
O=C(NCC#CCN1C[C@H]2C[C@H]2C1)C(O)(c1ccc(F)cc1)c1ccc(F)cc1 [Compound No. 12, N-{4-[(1R,5S)-3-azabicyclo[3.1.0]-hex-3-yl]-but-2-ynyl}2-hydroxy-bis(4-florophenyl)acetamide]	366
